Consider three substances from patent US10014546B2 (priority 2012, dated 2018).

Data set [1] is described as follows: Cyclic voltammetry (half-cell potential, reversibility). The format is physicochemical.
Data set [2] is described as follows: Solubility of the couple / active material.
Data set [3] in a line: Charge density calculated from concentration.
Data set [4] in a line: Crossover flux through membrane (ICP-MS). Particulars: Ti(cat)3 / Fe(CN)6 cell.

Only a part of the results on these compounds is given; other tests are left out. Where only a bound is given, the exact number is not on record here.

As for Potassium hexacyanochromate(III), in data set [1] (pH 9), the “E1/2, V vs. RHE” value was −0.60 V vs. RHE. Further, the “Solubility (Molar), 25° C.” value in data set [2] was not below 1.5 Molar. Moreover, the “Charge Density (Ah/L)” value in data set [3] is listed as 40.2 Ah/L.
potassium hexacyanomanganate(III): the “E1/2, V vs. RHE” value in data set [1] (pH 9) is on record as −0.60 V vs. RHE. Besides, the “Solubility (Molar), 25° C.” value in data set [2] was not below 1.5 Molar. Moreover, the “Charge Density (Ah/L)” value in data set [3] is on record as 40.2 Ah/L.
Turning to ferri/ferro-cyanide, the crossover flux is 5.0×10^−8 mol cm^−2 day^−1 in data set [4] (boiled Nafion NR212, 50 micron thick) and 1.1×10^−5 mol cm^−2 day^−1 in data set [4] (unboiled Nafion HP, 20 micron thick). Also, the “E1/2, V vs. RHE” value in data set [1] (pH 11) was 1.18 V vs. RHE; in data set [1] (pH 11, listed as Fe(CN)6^2−/3−) it was “+1.18 V vs. RHE”. In addition, the “Charge Density (Ah/L)” value in data set [3] is reported as 40.2 Ah/L.
